# Results: publication PMC8105262 (Molecular imaging and biology, 2020)
# By UniProt entry, the sequences of proteins in these tests, tags left out.
# UniProt Q9JIS5, whole entry: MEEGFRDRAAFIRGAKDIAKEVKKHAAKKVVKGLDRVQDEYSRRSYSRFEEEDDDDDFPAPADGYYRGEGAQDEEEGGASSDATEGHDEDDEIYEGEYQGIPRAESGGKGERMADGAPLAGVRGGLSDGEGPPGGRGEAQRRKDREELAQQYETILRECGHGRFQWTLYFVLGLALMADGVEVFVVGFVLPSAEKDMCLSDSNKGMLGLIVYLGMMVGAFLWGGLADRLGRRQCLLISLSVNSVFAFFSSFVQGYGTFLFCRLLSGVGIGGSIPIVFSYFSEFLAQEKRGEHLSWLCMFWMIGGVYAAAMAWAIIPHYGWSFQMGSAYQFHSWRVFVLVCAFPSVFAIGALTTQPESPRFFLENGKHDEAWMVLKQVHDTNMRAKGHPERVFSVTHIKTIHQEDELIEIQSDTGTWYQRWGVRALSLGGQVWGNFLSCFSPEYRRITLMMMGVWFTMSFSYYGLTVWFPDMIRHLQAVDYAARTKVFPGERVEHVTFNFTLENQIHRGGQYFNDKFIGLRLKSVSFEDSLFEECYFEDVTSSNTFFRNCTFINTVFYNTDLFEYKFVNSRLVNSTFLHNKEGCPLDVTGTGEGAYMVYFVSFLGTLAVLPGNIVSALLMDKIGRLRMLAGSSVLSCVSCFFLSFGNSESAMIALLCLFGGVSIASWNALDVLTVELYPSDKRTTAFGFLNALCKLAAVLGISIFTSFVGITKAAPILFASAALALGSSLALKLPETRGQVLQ
# Molecular target: SV2A (Mus musculus, UniProt Q9JIS5)
# Type: binding
# Conditions: levetiracetam 1 mM, mouse brain sections
compound,measurement,value
"CC[C@@H](C(N)=O)N1CCCC1=O [levetiracetam, reference compound]",Effect of co-incubation on total [^18F]SynVesT-1 binding signal,reduced total binding signal to nonspecific levels
